Reference: ChEMBL document CHEMBL1154744, “HIV-1 protease inhibitors with a transition-state mimic comprising a tertiary alcohol: improved antiviral activity in cells” (J Med Chem, 2010)

Molecular target: Protease (Human immunodeficiency virus 1, UniProt Q9YQ12)
Experiment: Inhibition of HIV1 protease expressed in Escherichia coli by fluorometric assay

Q: Which Ki does the source give for `COC(=O)N[C@H](C(=O)NN(CC[C@@](O)(Cc1ccccc1)C(=O)N[C@H]1c2ccccc2C[C@H]1O)Cc1ccc(-c2ccccn2)cc1)C(C)(C)C` here?
A: 1.7 nM

Q: With `Cc1cccc(C)c1OCC(=O)N[C@@H](Cc1ccccc1)[C@@H](O)C[C@H](Cc1ccccc1)NC(=O)[C@H](C(C)C)N1CCCNC1=O` [LOPINAVIR] as the compound, how does the Ki read?
A: 1.4 nM

Q: With `CC(C)(C)NC(=O)[C@@H]1CN(Cc2cccnc2)CCN1C[C@@H](O)C[C@@H](Cc1ccccc1)C(=O)N[C@H]1c2ccccc2C[C@H]1O` as the compound, how does the Ki read?
A: 0.3 nM

Q: With `CC(C)(C)NC(=O)[C@@H]1C[C@@H]2CCCC[C@@H]2CN1C[C@@H](O)[C@H](Cc1ccccc1)NC(=O)[C@H](CC(N)=O)NC(=O)c1ccc2ccccc2n1` as the compound, how does the Ki read?
A: 0.2 nM
